Like-named read-outs stand apart in the source and are kept apart here.
How the values were obtained:
[1] = molecular target: T1, His-tagged soluble recombinant human IGF-IR (srhIGF-1R-his) (Homo sapiens, UniProt P08069); assay: ALPHAScreen competition binding assay, biotinylated hIGF-1
T1 construct: The extra-cellular domain of IGF-1R was obtained as a recombinant protein from R&D Systems; purchased R&D Systems, Inc., Minneapolis, Minn
Description: Binding Assays. […] Detection of the receptor ligand interaction was measured in an amplified luminescent proximity homogeneous assay (ALPHAScreen; BioSignal-Packard, Montreal). The assay was performed in 384-well Nunc™ white polystyrene microplates (Nalge Nunc International, Naperville, Ill.) with a final volume of 40 μL. […] Each concentration of competitor was assayed in duplicate. Non-specific binding was determined in the presence of 3×10^−5 M hIGF-1. The second step of the assay was to add acceptor beads and the incubation continued for 0.5 hr. The final step was to add donor beads and the incubation continued for an additional 1 hr. […] Primary data were background corrected, normalized to buffer controls and then expressed as % Specific Binding. The data were fit to a four-parameter non-linear regression analysis (y=min+(max-min)/(1+10̂((log IC50-x)*Hillslope))), which was used to determine IC50 values. The Z′-factor for this assay is greater than 0.7 (Z′=1-(3σ++3σ−)/|μ+−μ−|) and the signal-to-background (SB) ratio was between 40 and 70.

Chains of the proteins cited; added tags and fusions are not shown. Residues count along the entry.
UniProt P08069, 741-935 limits assumed: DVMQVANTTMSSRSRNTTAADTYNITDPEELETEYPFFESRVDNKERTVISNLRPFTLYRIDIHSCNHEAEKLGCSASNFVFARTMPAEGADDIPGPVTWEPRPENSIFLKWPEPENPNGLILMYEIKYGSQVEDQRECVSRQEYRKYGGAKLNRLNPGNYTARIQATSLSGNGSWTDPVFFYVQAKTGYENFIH
UniProt P08069, 31-736 limits assumed: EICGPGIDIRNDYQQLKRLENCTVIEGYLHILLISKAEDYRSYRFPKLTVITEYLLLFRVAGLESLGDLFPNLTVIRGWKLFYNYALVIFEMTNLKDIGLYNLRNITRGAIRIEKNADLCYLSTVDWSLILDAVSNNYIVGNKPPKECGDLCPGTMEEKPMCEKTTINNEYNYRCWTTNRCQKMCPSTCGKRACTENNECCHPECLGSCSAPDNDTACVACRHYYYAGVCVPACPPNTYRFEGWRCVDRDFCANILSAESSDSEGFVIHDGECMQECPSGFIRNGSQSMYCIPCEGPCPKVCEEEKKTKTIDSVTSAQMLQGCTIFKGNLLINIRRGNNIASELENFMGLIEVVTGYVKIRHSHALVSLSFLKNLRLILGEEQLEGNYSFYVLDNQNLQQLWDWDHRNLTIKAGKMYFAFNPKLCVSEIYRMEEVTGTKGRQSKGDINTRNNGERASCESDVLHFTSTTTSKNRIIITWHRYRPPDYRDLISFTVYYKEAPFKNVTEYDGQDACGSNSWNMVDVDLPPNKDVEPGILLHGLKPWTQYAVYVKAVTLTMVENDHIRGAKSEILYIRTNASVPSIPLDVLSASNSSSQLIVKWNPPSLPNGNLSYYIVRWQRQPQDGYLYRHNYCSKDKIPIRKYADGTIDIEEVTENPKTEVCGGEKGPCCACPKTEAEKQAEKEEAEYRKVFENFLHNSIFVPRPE
UniProt P08069, 741-1367 limits assumed: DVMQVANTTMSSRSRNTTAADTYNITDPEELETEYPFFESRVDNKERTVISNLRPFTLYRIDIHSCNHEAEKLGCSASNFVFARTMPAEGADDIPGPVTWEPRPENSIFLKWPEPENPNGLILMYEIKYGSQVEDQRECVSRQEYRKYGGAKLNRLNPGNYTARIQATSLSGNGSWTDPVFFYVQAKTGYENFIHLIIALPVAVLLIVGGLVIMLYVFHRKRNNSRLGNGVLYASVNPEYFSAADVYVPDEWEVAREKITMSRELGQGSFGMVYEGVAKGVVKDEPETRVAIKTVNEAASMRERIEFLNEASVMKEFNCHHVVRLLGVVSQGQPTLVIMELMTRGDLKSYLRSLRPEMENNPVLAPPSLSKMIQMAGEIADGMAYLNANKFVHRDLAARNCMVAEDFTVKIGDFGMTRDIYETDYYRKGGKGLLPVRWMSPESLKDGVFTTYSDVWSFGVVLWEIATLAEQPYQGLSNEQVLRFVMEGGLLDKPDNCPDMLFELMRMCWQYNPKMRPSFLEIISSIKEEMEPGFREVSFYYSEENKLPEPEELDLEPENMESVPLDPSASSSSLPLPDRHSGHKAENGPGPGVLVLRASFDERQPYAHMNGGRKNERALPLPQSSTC

HIGF-1R = molecular target: T2, HIGF-1R (Homo sapiens, UniProt P08069); assay: IGF-1R affinity, scintillation proximity assay (SPA assay), 125I-IGF1 displacement; type: binding; conditions: for Kd: read-out: HIGFIR Affinity (SPA-assay), IC50 for binding used as a measure of Kd; for IC50: read-out: IG-1 Displacement Binding Affinity IC50 = M, Table 12
T2 construct: HIGF-1R was purified from a cell culture of BHK cells stably transfected with IGF-1R cDNA; made in house; host or cells: BHK cells stably transfected with IGF-1R cDNA
Description: In certain cases, a scintillation proximity assay (SPA assay) was used to determine IGF-1R affinity. Briefly, anti-mouse SPA beads were mixed with an HIGF-1R antibody (24-31) and WGA-purified HIGF-1R from transfected cells. The binding buffer was 0.1 M Hepes, pH 7.8, 0.1 M NaCl, 10 mM MgCl2, 0.025% Tween-20, 0.5% BSA. To this mixture was added ^125I-IGF1 and a dilution series of IGF1 or the peptide to be determined.

purified HIGF-1R = molecular target: T3, purified HIGF-1R (Homo sapiens, UniProt P08069); assay: IGF-1R activation kinase assay; type: biochemical; conditions: IGF-1R kinase activation by 10 nM IGF-1
T3 construct: HIGF-1R was purified from a cell culture of BHK cells stably transfected with IGF-1R cDNA; made in house; host or cells: BHK cells stably transfected with IGF-1R cDNA
Description: For determining IGF-1R activation with test peptides, a kinase assay, generally using the following conditions was employed. A solution of each test peptide in kinase buffer (Hepes 100 mM (pH 8.0), MgCl2 8 mM, MnCl2 6 mM, Triton X100 0.1% v/v, BSA 0.2% w/v, 4 μg/ml IRS-1 peptide (Biotin-[…] in PBS+1 mg/ml)) was prepared. Samples were mixed in a microtiter plate in triplicate. 50 μl 2× kinase buffer was added into each well. […] Volume was adjusted to 88 μL, before addition of purified HIGF-1R (2 μl/well). Plates were shaken and incubated for 50 min. at room temperature (RT). DTT and 10 μl/well ATP were added and the wells incubated for 10 min. before stopping the reaction by adding 10 μl stop-buffer (50 mM EDTA (pH 8.0))/well and shaking. The samples were then transferred to streptavidin coated plates and incubated for 1 hour at RT. The coated plates were aspirated and washed 3 times with TBS-T. […] P-tyr Ab-PO (Phosphotyrosine-RC20:HRPO (1:1000) in TBS-T) was added and each plate was incubated for 30 min at RT. The plates were aspirated and washed 3 times with TBS-T. 100 μl TMB-One-substrate (Kem-En-Tec Diagnostics A/S—Denmark) (preheated to RT) was then added and the plates further incubated for approximately 20 min at RT. This reaction was stopped by adding 10 μl H2SO4 and the plates were read in an ELISA-reader at […] within 5-10 min. thereafter. Table 7 includes additional results from such experiments.
[…]. […] […].

MCF-7S8 cells = MCF-7S8 cells (Homo sapiens, UniProt P08069); assay: cell growth/density, mitochondrial activity assay (WST-1), MCF-7S8; type: cell-based; conditions: for IC50 in MCF-7S8: in presence of IGF-1: first value of the cell, 10 nM IGF-1, cells in words only = effect as reported, 72 hours, no unit in head (SW480 column: M); for IC50 in MCF-7S8: alone: second value of the cell, basal level in 0.5% FCS, unit not given
Description: For cell growth/density studies, a mitochondrial activity assay was used, as exemplified by the following. Cells (SW480, MCF-7S8) were propagated in complete medium (DME: F12, 10% FCS (SW 480) or 5% FCS (MCF-7S8, P/S)), trypsinized, and seeded in 96 well plates as 10,000 cells/well in medium with 0.5% FCS. All wells in the periphery were omitted and only filled with medium. […] All treatments are made in triplicates. […] Treatment was continued for 48 hours (SW480 cells) or 72 hours (MCF-7S8 cells) before quantification of the cell density. Media was exchanged each day. Media and peptides were diluted in DMSO. When measuring cell density, the volume of each well was adjusted to […] Pre-diluted WST-1 (1 ml+1.5 ml DME:F12) was added as 25 μL to each well including background samples. Three wells with media only served as background controls. The cells were incubated for 90 min protected against light in an incubator.

Human IGF-1R (HIGF-1R) = molecular target: T4, Human IGF-1R (HIGF-1R) (Homo sapiens, UniProt P08069); assay: IGF-1R affinity study, 125I-IGF-1 competition, PEG precipitation (PEG-assay); type: binding; conditions: read-out: HIGFIR affinity (PEG-assay)
T4 construct: HIGF-1R was purified from a cell culture of BHK cells stably transfected with IGF-1R cDNA; made in house; host or cells: BHK cells stably transfected with IGF-1R cDNA
Description: IGF-1R affinity studies were generally performed as follows. […] HIGF-1R was purified from a cell culture of BHK cells stably transfected with IGF-1R cDNA. The day before harvest cells were moved to serum free conditions and before harvest the cells were rinsed with and ice cold PBS solution. The cells were solubilized in cold lysis buffer (4 ml lysis buffer/1×10^8 cells); vortexed vigorously to lysis in lysis buffer (50 mM Hepes (pH 8.0); 150 mM NaCl; 1% Triton X-100; 2 mM EDTA; 10 μg/mlaprotinin; 0.5 mM PEFABLOC (Roche)); and the lysate centrifuged at 4° C., 20000 rpm, for 15 minutes. The HIGF-1R portion was absorbed to WGA-agarose beads and subjected to chromatography purification (Pharmacia biotech No 17-0760-01) (column washed with 20× column volumes wash buffer −50 mM Hepes (pH 8.0); 150 mM NaCl; 0.1% Triton X-100; 0.5 mM PEFABLOC (Roche)). The HIGF-1R portion was then eluted with 0.5 M n-Acetyl Glycosamine (NAG), 10% Glycerol in elution buffer (50 mM Hepes (pH 8.0); 150 mM NaCl; 0.1% Triton X-100; 0.5 mM PEFABLOC (Roche); 0.5 M n-acetyl glucosamine; 10% glycerol). […] After equilibration for 2 days at 4° C., each sample (200 μl) typically was precipitated by addition of 400 μl 25% PEG 6000, centrifuged, washed with 1 ml 15% PEG 6000, and counted in a gamma-counter. In some cases, human insulin receptor (HIR) affinity for select test peptides was similarly measured.

MCF7 cells = MCF7 cells (Homo sapiens, UniProt P08069); type: cell-based
Description: Additional binding and antagonism assays using candidate peptides were performed. […] Cell viability was determined by luminescence assay and IC50 was calculated using standard techniques.

[2] = peptide stability (method not described)
[3] = read-out: AlphaScreen Binding Affinity IC50 = M, Table 12

Ac-ESDVWAQPQRRNDWPGYHWLSR [Peptide F288]
IC50 [1, 3]: 320 nM
Kd (HIGF-1R): > 20 µM
IC50 (HIGF-1R): > 20 µM

Ac-VGRASGPPENFYDWPGRQLSLQSGEQRR [Peptide F287]
IC50 [1, 3]: 8400 nM
Kd (HIGF-1R): 7.6 µM
IC50 (HIGF-1R): 7.6 µM

EFGTGYGGDGGGYWSGYEWLAW [Peptide F207]
IC50 (purified HIGF-1R): 0.2 µM
IC50 in MCF-7S8: in presence of IGF-1 (MCF-7S8 cells): Agonistic
IC50 in MCF-7S8: alone (MCF-7S8 cells): no effect
Kd (Human IGF-1R (HIGF-1R)): > 20 µM

EGRVDDAFYENFERQLGE [Peptide F213]
IC50 in kinase assay (M) (purified HIGF-1R): No effect
IC50 in MCF-7S8: in presence of IGF-1 (MCF-7S8 cells): No effect
IC50 in MCF-7S8: alone (MCF-7S8 cells): no effect
Kd (Human IGF-1R (HIGF-1R)): 0.8 µM

EGSLDESFYDWFERQLG-POX2-GYSWLRDVLMEKQAQLKREGSVGRQE [Peptide F255]
IC50 (MCF7 cells; read-out: Antagonism MCF7 Cells IC50 = M, Table 12): 18 µM
IC50 [1, 3]: 1600 nM
Kd (HIGF-1R): 13 µM
IC50 (HIGF-1R): 13 µM

ETGRECWGRPCGEADSFYDWFVQQGSE [Peptide F267]
Antagonism MCF7 Cells IC50 = M (MCF7 cells; Table 12): agonist

GSGGYASRDESFYEWFERQLA [Peptide F276]
IC50 [1, 3]: 5100 nM
Kd (HIGF-1R): 1.6 µM
IC50 (HIGF-1R): 1.6 µM

RGNVGGGSLDESFYEWFERQLGR [Peptide F271]
IC50 [1, 3]: 5600 nM
Kd (HIGF-1R): 1.7 µM
IC50 (HIGF-1R): 1.7 µM

SFYSCLESLVAGPAEKSRGQWEGCR [Peptide F258]
stability compared with parent peptide [2]: greater stability

SFYSCLESLVAGPAEKSRGQWEGCRK [Peptide F259]
IC50 in MCF-7S8: alone (MCF-7S8 cells): no effect
stability compared with parent peptide [2]: greater stability than F250

SFYSCLESLVNGGAERSEGOWEGCR [Peptide F113]
IC50 (MCF7 cells; read-out: Cell, Table 11): 1 µM
IC50 ([1]; read-out: Binding (nM) AlphaScreen, Table 11): 560 nM
Kd (Human IGF-1R (HIGF-1R)): 0.56 µM
Kd (HIGF-1R): 0.84 µM

SFYSCLESLVNGPAEKSRGQWDGCRK [Peptide F250]
Cell (nM) (MCF7 cells; Table 11): 5-10,000 nM
IC50 in MCF-7S8: in presence of IGF-1 (MCF-7S8 cells): agonistic
IC50 in MCF-7S8: alone (MCF-7S8 cells): no effect

SLLSCFESYWQGPAEKSRGQVEGCRK [Peptide F365]
IC50 in kinase assay (M) (purified HIGF-1R): No effect

— patent US20110039779A1, “IGF-1R BINDING PROTEINS AND ANTAGONISTS” (priority 2007, published 2011)
